As usually defined, the EC50 is the midpoint of the concentration-response curve. Read a high EC50 as lower potency in that assay.

Chains of the proteins cited; added tags and fusions are not shown.
UniProt Q02153, whole entry: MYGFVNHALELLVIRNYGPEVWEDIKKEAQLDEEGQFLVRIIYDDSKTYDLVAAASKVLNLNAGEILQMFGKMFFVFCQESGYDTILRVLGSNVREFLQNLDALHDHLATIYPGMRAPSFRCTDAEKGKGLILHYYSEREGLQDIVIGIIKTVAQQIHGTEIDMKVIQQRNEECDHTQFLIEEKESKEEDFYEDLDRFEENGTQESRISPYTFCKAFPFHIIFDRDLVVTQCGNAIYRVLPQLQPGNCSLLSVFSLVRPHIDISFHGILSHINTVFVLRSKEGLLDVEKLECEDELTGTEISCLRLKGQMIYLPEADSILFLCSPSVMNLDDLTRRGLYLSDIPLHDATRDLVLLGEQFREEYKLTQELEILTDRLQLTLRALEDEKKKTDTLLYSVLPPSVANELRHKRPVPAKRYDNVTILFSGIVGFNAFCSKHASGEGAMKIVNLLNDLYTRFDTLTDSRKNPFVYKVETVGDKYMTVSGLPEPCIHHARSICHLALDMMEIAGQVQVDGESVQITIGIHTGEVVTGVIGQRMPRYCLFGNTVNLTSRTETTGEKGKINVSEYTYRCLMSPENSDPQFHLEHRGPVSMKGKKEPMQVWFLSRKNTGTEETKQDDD
UniProt Q02108, whole entry partner: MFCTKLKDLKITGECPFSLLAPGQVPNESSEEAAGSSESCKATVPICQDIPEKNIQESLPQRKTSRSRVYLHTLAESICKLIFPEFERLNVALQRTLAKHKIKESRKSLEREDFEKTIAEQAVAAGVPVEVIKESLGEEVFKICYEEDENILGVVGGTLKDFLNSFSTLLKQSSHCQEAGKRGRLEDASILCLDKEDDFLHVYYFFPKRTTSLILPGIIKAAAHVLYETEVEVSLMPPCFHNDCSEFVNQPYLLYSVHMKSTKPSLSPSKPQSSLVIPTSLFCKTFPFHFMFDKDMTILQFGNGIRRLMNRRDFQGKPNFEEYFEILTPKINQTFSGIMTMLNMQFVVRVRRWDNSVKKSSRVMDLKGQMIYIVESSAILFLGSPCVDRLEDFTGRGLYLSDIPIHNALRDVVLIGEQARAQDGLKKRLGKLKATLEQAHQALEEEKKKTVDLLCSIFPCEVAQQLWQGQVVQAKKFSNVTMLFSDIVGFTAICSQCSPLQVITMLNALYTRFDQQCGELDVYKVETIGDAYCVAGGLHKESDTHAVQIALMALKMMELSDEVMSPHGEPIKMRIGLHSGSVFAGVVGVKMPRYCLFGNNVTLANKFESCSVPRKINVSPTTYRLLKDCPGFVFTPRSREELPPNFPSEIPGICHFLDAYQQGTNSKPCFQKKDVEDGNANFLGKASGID

The target in this assay is soluble guanylate cyclase (human GUCYA3 and GUCYB3) overexpressed in CHO cells (Homo sapiens (Human), UniProt Q02153). The assay can be described thus: CHO cellular assay (cGMP production, Cisbio cGMP HTRF kit). The format is cell-based. As to conditions: CHO GUCY clone 8E10, cGMP production, assay buffer with 1 mM IBMX and 20 uM ODQ, 1 h room temperature; minimum quantification limit 0.5 nM (listed 0.5 nM means ≤0.5 nM).

As to `CCc1cc(O[C@H]2CCc3cccc(-c4cccc(-n5ncc(C(=O)O)c5C)n4)c32)ccc1C1CCN(C(=O)C2CC2)CC1`, the EC50 is at most 0.5 nM.

The record behind these values is patent US10550102B2, “Indane and indoline derivatives and the use thereof as soluble guanylate cyclase activators” (NOVARTIS AG, priority 2014, dated 2020).
